The record followed here is patent US8772274B1, “Anti-cancer compositions and methods” (The Penn State Research Foundation, priority 2008, dated 2014).

In this experiment the test system is PI3 kinase/Akt3 and MAP kinase signaling in UACC 903 cells. As to the kind of experiment: Western blot analysis of melanoma cell lysates. It is filed as cell-based. As to conditions: UACC 903, WM115 and 1205 Lu cells. The procedure:
Melanoma cell line UACC 903 cells (1×10^6) are treated with increasing concentrations (7-21 μM) of PBIT and PBISe for 24 hours and cell lysates examined by Western blot analysis Cell lysates are harvested by addition of lysis buffer containing 50 mM HEPES (pH 7.5), 150 mM NaCl, 10 mM EDTA, 10% glycerol, 1% Triton X-100, 1 mM sodium orthovanadate, 0.1 mM sodium molybdate, 1 mM phenylmethylsulfonyl fluoride, 20 μg/ml aprotinin, and 5 μg/ml leupeptin. Whole cell lysates are centrifuged (≧10,000×g) for 10 minutes at 4° C. to remove cell debris. Protein concentrations are quantitated using the BCA assay (Pierce, Rockford, Ill.), and 30 μg of lysate loaded per lane onto NuPAGE Gels (Life Technologies, Carlsbad, Calif.). Following electrophoresis, samples are transferred to polyvinylidene difluoride membrane (Pall Corporation, Pensacola, Fla.). Blots are probed with antibodies to PRAS40 and phosphorylated PRAS40 (Thr246) (Invitrogen, Carlsbad, Calif.); antibodies to iNOS, cyclin D1, p27, p21, Erk2, α-enolase and secondary antibodies conjugated with horseradish peroxidase from Santa Cruz Biotechnology (Santa Cruz, Calif.); and antibodies to Akt3, phosphorylated-Akt (Ser473), phosphorylated-Erk 1/2 (Thr202/Tyr204), caspase-3 and cleaved PARP from Cell Signaling Technology (Danvers, Mass.). Immunoblots are developed using ECL (Pierce, Rockford, Ill.).
(Immunoblotting shows a protein as a band on a membrane.)

Where a name gives a salt, the structure may show the parent alone.

Take `N=C(N)[Se]CCc1ccc(CC[Se]C(=N)N)cc1` [PBISe, s,s′-1,4-phenylene-bis(1,2-ethanediyl)bis-isoselenourea dihydrobromide]: the pErk1/2 result is “increased”.

Consider `Br.Br.N=C(N)SCCc1ccc(CCSC(=N)N)cc1` [PBIT, s,s′-1,4-phenylene-bis(1,2-ethanediyl)bis-isothiourea dihydrobromide, reference compound], for which the pErk1/2 result is “increased”.
